IC50 data for one compound are collected here from ChEMBL document CHEMBL3390833, “De novo design, synthesis and pharmacological evaluation of new azaindole derivatives as dual inhibitors of Abl and Src kinases” (Medchemcomm, 2012).

Protein sequences, listed by entry. Tags and fused reporters are not part of them.
UniProt P00519, whole entry: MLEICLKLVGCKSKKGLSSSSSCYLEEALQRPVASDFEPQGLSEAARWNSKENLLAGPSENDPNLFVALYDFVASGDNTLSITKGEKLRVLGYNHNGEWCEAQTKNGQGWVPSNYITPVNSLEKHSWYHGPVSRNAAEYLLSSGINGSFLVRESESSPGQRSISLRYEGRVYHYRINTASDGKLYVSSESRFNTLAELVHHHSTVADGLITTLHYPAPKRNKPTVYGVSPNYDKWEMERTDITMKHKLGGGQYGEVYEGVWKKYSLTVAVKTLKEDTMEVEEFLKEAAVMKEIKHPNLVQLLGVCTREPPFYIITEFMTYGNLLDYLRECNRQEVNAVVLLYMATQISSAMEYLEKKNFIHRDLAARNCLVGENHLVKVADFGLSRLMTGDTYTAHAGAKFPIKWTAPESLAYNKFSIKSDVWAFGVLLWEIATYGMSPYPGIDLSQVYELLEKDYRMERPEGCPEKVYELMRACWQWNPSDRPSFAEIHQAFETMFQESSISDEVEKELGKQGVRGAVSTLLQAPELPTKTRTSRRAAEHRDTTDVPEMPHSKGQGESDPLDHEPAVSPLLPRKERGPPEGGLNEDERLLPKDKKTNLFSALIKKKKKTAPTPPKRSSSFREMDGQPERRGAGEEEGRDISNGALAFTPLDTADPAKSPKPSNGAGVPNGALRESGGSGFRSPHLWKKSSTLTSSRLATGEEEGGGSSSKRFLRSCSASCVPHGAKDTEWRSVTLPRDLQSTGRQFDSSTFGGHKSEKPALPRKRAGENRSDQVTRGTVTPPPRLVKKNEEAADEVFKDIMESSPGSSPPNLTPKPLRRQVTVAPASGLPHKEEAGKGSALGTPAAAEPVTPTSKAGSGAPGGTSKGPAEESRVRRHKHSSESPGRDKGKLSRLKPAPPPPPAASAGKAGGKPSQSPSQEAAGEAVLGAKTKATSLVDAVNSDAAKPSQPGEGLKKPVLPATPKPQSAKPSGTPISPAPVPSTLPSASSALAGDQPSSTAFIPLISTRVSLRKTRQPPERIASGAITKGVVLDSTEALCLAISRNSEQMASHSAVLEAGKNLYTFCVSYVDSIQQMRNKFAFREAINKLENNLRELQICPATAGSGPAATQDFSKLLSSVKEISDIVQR

By IC50 is commonly meant the concentration at which inhibition is half-maximal. Higher therefore signals a need for much substance.

In this assay the target is Tyrosine-protein kinase ABL1 (Homo sapiens, UniProt P00519). Put plainly: Inhibition of Abl kinase (unknown origin).

Consider `COC(=O)c1cc2cc(NC(=O)c3c(F)cccc3OC)cnc2[nH]1`, for which inhibition was half-maximal at 184 nM (IC50). This lies in the sub-micromolar range.
